The source of these data is EP4793349A2.

The target in the test is cation-independent mannose-6-phosphate receptor (CIMPR). The test can be described thus: CIMPR affinity chromatography, M6P gradient elution, GAA activity of fractions.

In the case of “Lumizyme® rhGAA (alglucosidase alfa) (from UniProt P10253 57-952) (enzyme)”, the percent of rhGAA not bound to CIMPR came out at 78%. In the case of “Myozyme® rhGAA (alglucosidase alfa) (from UniProt P10253 57-952) (enzyme)” it was 73%.
